Assay results as given in paper PMC4863456 (Journal of Chemical Information and Modeling, 2015).

Tests used:
[1] = test system: CB1 receptor F3.36L mutation; conditions: cited from earlier work
[2] = test system: CB1 receptor F3.36A mutation; conditions: cited from earlier work
[3] = test system: CB1 receptor F3.36A mutation

SMILES: Cc1c(C(=O)NN2CCCCC2)nn(-c2ccc(Cl)cc2Cl)c1-c1ccc(Cl)cc1 [rimonabant, N-(Piperidin-1-yl)-5-(4-Chlorophenyl)-1-(2,4-Dichlorophenyl)-4-Methyl-1H -Pyrazole-3-Carboxamide]
- decrease in binding affinity upon mutation [1]: 2 fold
- decrease in binding affinity upon mutation [2]: 20 fold
- decrease in binding affinity upon mutation, as energy [3]: 1.78 kcal/mol
